Source: patent publication US7375083B2, “Pharmaceutical compositions for prevention of overdose or abuse” (Shire LLC, priority 2003, dated 2008)

Assay: Kitchen tests: release of amphetamine by water, acid, base and heat
Conditions: acid (vinegar), base (baking powder and baking soda), heat

Row | SMILES | Amphetamine released after treatment
1 | CC(Cc1ccccc1)NC(=O)C(N)CCCCN [L-lysine-d-amphetamine, 2,6-diaminohexanoic acid-(1-methyl-2-phenylethyl)-amide] | no amphetamine was detected
2 | CC(Cc1ccccc1)NC(=O)CNC(=O)CNC(=O)CN (centres unmarked) [Gly3-Amp, 2-Amino-N-({[(1-methyl-2-phenyl-ethylcarbomyl)-methyl]-carbomyl}-methyl)-acetamide] | no amphetamine was detected
